Our source for the IC50, inhibition and outcome values is PubChem BioAssay AID624129 (Sanford-Burnham Center for Chemical Genomics, 2012).

By UniProt entry, the sequences of proteins in these tests, tags left out. Where a name states a change or a piece, a line headed by the entry shows the natural chain unless it says otherwise.
UniProt P35414: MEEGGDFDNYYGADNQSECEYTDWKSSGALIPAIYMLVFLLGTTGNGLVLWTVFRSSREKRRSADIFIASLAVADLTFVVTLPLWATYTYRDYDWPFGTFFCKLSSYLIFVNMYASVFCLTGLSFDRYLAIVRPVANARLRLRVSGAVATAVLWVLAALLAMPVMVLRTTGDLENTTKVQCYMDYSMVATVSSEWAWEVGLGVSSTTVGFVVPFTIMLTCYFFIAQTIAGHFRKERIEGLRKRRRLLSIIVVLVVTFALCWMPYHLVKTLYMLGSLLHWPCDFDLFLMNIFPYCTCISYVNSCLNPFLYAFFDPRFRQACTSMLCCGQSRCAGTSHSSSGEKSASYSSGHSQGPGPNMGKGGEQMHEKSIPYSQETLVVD
UniProt P51684: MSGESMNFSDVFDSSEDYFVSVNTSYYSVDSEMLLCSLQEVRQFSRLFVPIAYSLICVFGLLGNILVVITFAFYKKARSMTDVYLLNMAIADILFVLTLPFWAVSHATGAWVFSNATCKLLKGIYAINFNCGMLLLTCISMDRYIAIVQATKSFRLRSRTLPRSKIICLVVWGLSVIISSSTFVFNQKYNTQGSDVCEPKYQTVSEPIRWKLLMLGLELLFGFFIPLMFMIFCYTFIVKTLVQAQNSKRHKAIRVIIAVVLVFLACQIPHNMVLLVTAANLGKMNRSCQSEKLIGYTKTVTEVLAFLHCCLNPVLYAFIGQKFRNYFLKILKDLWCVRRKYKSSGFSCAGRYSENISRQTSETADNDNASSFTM
UniProt O00574: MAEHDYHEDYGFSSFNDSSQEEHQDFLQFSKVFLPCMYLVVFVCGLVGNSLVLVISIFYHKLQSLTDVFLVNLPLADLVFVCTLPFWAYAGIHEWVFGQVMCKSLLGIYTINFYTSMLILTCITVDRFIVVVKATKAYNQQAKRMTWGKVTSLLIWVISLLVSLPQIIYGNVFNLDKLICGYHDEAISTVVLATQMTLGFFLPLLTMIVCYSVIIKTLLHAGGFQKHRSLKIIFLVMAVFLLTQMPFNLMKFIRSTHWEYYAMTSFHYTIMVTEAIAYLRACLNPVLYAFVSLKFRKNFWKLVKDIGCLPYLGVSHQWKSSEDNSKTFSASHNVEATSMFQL

What all share (test): CXCR6 receptor antagonists, dose response, cell-based, beta-arrestin, DiscoveRx, APJ panel, uHTS hits (AID 624129)
The target in assay [1] is Apelin receptor (Homo sapiens) (UniProt P35414). Conditions: CXCR6 beta-arrestin (DiscoveRx) antagonist cell assay, APJ.
The target in assay [2] is C-C chemokine receptor type 6 (Homo sapiens) (UniProt P51684). Conditions: CXCR6 beta-arrestin (DiscoveRx) antagonist cell assay.
Assay [3] has as its target C-X-C chemokine receptor type 6 (Homo sapiens) (UniProt O00574). Conditions: CXCR6 beta-arrestin (DiscoveRx) antagonist cell assay.
Where [4] appears, read: dose range 1, mean IC50 across replicates.
Where [5] appears, read: CCR6, dose range 1, mean IC50 across replicates.
The mark [6] stands for this setting: CXCR6, dose range 1, mean IC50 across replicates.
Setting [7] is: CXCR6, run 2, dose range 1, at 79 µM (top of the series).

The list shows a part of the results, in another mix than the full data. Activity calls are given as the source filed them. No rule for the calls is given here.

In general, IC50 refers to the concentration that gives 50% inhibition. By inhibition is commonly meant the change of the read-out against control, counted positive when it falls. As to `C[N+]1=C2C=CC=CC=C2SC12C([N+](=O)[O-])=CC([N+](=O)[O-])=C[C-]2[N+](=O)[O-]` (stereo not drawn), the IC50 is 7.87 µM in assay [1] (dose range 1); 15.2 µM in assay [1] (setting [4]); 14.9 µM in assay [1] (run 2, dose range 1); 22.7 µM in assay [1] (run 3, dose range 1); 24.7 µM in assay [2] (CCR6, dose range 1); 32.7 µM in assay [2] (setting [5]). The IC50 in assay [2] (CCR6, run 2, dose range 1) was 40.7 µM; in assay [3] (setting [6]), 24.8 µM; in assay [3] (CXCR6, run 2, dose range 1), 33.1 µM. Besides, the IC50 entry in assay [3] (CXCR6, dose range 1) was “inactive”. The inhibition in assay [3] (CXCR6, run 1, dose range 2, at 80 µM (top of the series)) turned out to be 129%.

For `O=c1c2cc([N+](=O)[O-])ccc2[nH]c2c([N+](=O)[O-])cc([N+](=O)[O-])cc12`, the outcome in assay [3] (CXCR6, dose range 1) was inactive. The IC50 in assay [3] (setting [6]) came to 31.8 µM; in assay [3] (CXCR6, run 1, dose range 2), 29.7 µM; in assay [3] (CXCR6, run 2, dose range 2), 34 µM. Moreover, in assay [3] (setting [7]), the inhibition came to 99.5%.

Regarding `CN(C)C(=O)c1cc([N+](=O)[O-])cc2c1-c1c(cc([N+](=O)[O-])cc1[N+](=O)[O-])C2=O`, the IC50 in assay [1] (dose range 1) is 45.3 µM; in assay [1] (setting [4]), 36.2 µM; in assay [1] (run 2, dose range 1), 27.1 µM; in assay [1] (run 3, dose range 1) it was over 80 µM; in assay [2] (CCR6, dose range 1) it was 8.11 µM; in assay [2] (setting [5]), 7.39 µM. In addition, the IC50 in assay [2] (CCR6, run 2, dose range 1) was 6.66 µM; in assay [3] (CXCR6, dose range 1), 12.4 µM; in assay [3] (setting [6]) it was 10.3 µM; in assay [3] (CXCR6, run 1, dose range 2), 9.18 µM; in assay [3] (CXCR6, run 2, dose range 1) it was 9.34 µM; in assay [3] (CXCR6, run 2, dose range 2), 10.4 µM.

Consider `CSc1ccc(Nc2c([N+](=O)[O-])cc([N+](=O)[O-])cc2[N+](=O)[O-])cc1`, for which the outcome in assay [3] (CXCR6, dose range 1) was inactive. Besides, the IC50 is 33.1 µM in assay [3] (setting [6]); 35.1 µM in assay [3] (CXCR6, run 1, dose range 2); 31.2 µM in assay [3] (CXCR6, run 2, dose range 2). Besides, in assay [3] (setting [7]), the inhibition was 90.7%.
